Measured values: US7879817B2, “Hyaluronic acid derivative and drug containing the same” (priority 2004, dated 2011)
Read-outs that look alike come from different tables or passages of the source.

How the values were obtained:
[1] = Sustained release property in the rabbit knee joint (residual ratio in synovial fluid and synovium); conditions: intra-articular
[2] = Appearance of the 1.0% by weight solution in PBS; type: physicochemical
Filter pass through test = type: physicochemical; set-up: key: A: 2 ml or more was passed; B: less than 2 ml was passed; C: none passed
Description: PBS in which each substance to be tested was dissolved to a concentration of 1.0% by weight was prepared. At a temperature of 24° C. under pressure of 5.0 kg/cm^2, each solution of the substances to be tested prepared in the following examples was passed through a 0.45 μm porous filter (25 mm in diameter), and the passed amount (ml) per 1 minute was measured A case in which 2 ml or more was passed is shown by “A”, and a case in which less than 2 ml was passed by “B”, and a case in which none passed by “C”.

[3] = dissolved in PBS to 1.0% by weight
[4] = 1.0% by weight in PBS, 0.45 μm porous filter (25 mm in diameter), 24° C., 5.0 kg/cm^2

Substance: 1% Aminopropanol-ketoprofen-Introduced Sodium Hyaluronate Solution [KP-HA]
- persistence of KP in the synovium [1]: KP was persistently maintained also in the synovium
- presence of KP in synovial fluid and synovium ([1]; after 4 days): the presence of KP was confirmed in both of the synovial fluid and synovium even after 4 days

Substance: 2-amino-1,5-pentanediol-ketoprofen-Introduced Hyaluronic Acid [Example 28]
- appearance of the solution [2, 3]: colorless and transparent liquid
- filter pass through test (passed amount per 1 minute) (Filter pass through test; [4]): A (2 ml or more was passed)

Substance: 3-amino-1,2-propanediol-ketoprofen-introduced Hyaluronic Acid [Example 30]
- appearance of the solution [2, 3]: colorless and transparent liquid
- filter pass through test (passed amount per 1 minute) (Filter pass through test; [4]): A (2 ml or more was passed)

Substance: Aminopropanol-fenbufen-Introduced Hyaluronic Acid [Example 15]
- appearance of the solution [2, 3]: colorless and transparent liquid

Substance: Aminopropanol-ibuprofen-Introduced Sodium Hyaluronate [Example 7]
- appearance of the solution [2, 3]: colorless and transparent liquid

Substance: Aminopropanol-ketoprofen-Introduced Sodium Hyaluronate [Example 2]
- appearance of the solution [2, 3]: colorless and transparent liquid
- filter pass through test (passed amount per 1 minute) (Filter pass through test): A (key: A: 2 ml or more was passed; B: less than 2 ml was passed; C: none passed)

Substance: Aminopropanol-ketoprofen-Introduced Sodium Hyaluronate [Example 3]
- appearance of the solution [2]: colorless and transparent liquid
- filter pass through test (passed amount per 1 minute) (Filter pass through test): A (key: A: 2 ml or more was passed; B: less than 2 ml was passed; C: none passed)

Substance: Aminopropanol-ketoprofen-Introduced Sodium Hyaluronate [Example 24]
- filter pass through test (passed amount per 1 minute) (Filter pass through test): C

Substance: Aminopropanol-naproxen-Introduced Sodium Hyaluronate [Example 5]
- appearance of the solution [2, 3]: colorless and transparent liquid
- filter pass through test (passed amount per 1 minute) (Filter pass through test; [4]): A (2 ml or more was passed)

Substance: Glycine-tris(hydroxymethyl)aminomethane-ketoprofen-Introduced Hyaluronic Acid [Example 33]
- appearance of the solution [2]: colorless and transparent liquid
- filter pass through test (passed amount per 1 minute) (Filter pass through test): A (key: A: 2 ml or more was passed; B: less than 2 ml was passed; C: none passed)

Substance: Serinol-ketoprofen-Introduced Hyaluronic Acid [Example 26]
- appearance of the solution [2, 3]: colorless and transparent liquid
- filter pass through test (passed amount per 1 minute) (Filter pass through test): A (key: A: 2 ml or more was passed; B: less than 2 ml was passed; C: none passed)
